Tests used:
[1] = biological target: T1, human Dopamine D2L receptor (Homo sapiens, UniProt P14416); assay: In vitro binding affinity for human D2L receptor ([3H]Spiperone); settings: human D2L receptor-transfected CHO cell membranes
T1 construct: expressed in transfected cells; host or cells: CHO cells
Experimental: Frozen membranes of human Dopamine D2L receptor-transfected CHO cells were thawed, briefly homogenised using an Ultra-Turrax T25 homogeniser and diluted in Tris-HCl assay buffer containing NaCl, CaCl2, MgCl2, KCl (50, 120, 2, 1, and 5 mM respectively, adjusted to pH 7.7 with HCl) to an appropriate protein concentration optimised for specific and non-specific binding. Radioligand [^3H]Spiperone (NEN, specific activity ˜70 Ci/mmol) was diluted in assay buffer at a concentration of 2 nmol/L. Prepared radioligand (50 μl), along with 50 μl of either the 10% DMSO control, Butaclamol (10^−6 mol/l final concentration), or compound of interest, was then incubated (30 min, 37° C.) with 400 μl of the prepared membrane solution. Membrane-bound activity was filtered through a Packard Filtermate harvester onto GF/B Unifilterplates and washed with ice-cold Tris-HCl buffer (50 mM; pH 7.7; 6×0.5 ml). Filters were allowed to dry before adding scintillation fluid and counting in a Topcount scintillation counter. Percentage specific bound and competition binding curves were calculated using S-Plus software (Insightful).

Sequences of proteins named here, by UniProt entry; tags and fusion partners are left off. A change or cut given only in a name is not applied to a line headed by its entry. Residues count along the entry.
UniProt P14416, whole entry: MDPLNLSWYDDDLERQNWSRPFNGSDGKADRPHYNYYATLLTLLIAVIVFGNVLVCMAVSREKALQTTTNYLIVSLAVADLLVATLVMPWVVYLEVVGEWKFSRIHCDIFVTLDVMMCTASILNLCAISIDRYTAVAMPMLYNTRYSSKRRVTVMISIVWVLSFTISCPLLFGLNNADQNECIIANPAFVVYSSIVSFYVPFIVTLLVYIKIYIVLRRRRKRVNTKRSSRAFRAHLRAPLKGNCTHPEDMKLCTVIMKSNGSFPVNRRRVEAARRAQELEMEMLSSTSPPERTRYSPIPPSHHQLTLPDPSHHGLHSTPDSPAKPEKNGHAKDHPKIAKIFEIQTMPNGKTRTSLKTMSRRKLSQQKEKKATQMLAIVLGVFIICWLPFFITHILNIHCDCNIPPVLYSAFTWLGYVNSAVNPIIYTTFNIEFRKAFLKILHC
UniProt Q9WTR4, 1-597: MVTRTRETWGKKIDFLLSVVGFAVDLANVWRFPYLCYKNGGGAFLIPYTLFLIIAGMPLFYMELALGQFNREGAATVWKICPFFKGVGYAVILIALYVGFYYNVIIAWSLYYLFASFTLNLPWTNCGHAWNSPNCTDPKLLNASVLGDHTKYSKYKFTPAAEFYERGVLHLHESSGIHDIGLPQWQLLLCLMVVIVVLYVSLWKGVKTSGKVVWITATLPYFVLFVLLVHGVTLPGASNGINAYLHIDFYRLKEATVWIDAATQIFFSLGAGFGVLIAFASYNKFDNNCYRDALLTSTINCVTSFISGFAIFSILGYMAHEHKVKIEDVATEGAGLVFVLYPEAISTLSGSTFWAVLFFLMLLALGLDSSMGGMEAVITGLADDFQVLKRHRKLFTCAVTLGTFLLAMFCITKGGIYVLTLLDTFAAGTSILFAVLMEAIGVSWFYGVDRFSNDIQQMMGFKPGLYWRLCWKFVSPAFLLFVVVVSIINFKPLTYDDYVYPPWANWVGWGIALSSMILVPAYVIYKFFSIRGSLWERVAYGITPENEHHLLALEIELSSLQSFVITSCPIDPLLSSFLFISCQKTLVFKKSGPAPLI
UniProt P28335, 33-458: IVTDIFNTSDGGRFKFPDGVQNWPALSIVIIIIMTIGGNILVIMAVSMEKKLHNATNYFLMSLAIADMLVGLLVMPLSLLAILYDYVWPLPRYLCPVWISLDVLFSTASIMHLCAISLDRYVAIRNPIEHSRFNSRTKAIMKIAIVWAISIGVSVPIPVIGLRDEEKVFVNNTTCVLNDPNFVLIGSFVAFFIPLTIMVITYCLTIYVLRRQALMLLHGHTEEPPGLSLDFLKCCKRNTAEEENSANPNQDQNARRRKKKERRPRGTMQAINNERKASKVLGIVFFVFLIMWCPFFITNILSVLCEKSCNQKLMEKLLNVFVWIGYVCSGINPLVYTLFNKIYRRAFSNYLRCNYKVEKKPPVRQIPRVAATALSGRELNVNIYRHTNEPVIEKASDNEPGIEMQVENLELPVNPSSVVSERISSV
UniProt P28223, whole entry: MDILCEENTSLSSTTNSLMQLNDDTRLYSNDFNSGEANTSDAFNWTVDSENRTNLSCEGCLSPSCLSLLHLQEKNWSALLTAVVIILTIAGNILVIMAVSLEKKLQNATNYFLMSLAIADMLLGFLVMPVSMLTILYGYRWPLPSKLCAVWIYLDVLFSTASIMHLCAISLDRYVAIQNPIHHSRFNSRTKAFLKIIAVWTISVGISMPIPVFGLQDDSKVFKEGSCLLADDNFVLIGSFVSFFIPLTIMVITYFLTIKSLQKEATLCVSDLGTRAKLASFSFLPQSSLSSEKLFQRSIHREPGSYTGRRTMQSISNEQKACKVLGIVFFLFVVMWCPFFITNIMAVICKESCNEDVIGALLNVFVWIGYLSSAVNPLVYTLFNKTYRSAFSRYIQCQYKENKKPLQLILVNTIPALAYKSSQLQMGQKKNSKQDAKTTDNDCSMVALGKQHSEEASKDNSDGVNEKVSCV

NET = biological target: T2, NET (Rattus norvegicus, UniProt Q9WTR4); assay: In vitro determination of NET reuptake inhibition ([3H]Nixosetine binding, rat brain cortex); settings: read-out: NET Reuptake Inhibition (converted)
T2 construct: Cortex from rat brain was collected and homogenised; from tissue; host or cells: rat brain cortex
Experimental: Cortex from rat brain was collected and homogenised using an Ultra-Turrax T25 and a Dual homogeniser in ice-cold homogenising buffer containing Tris, NaCl and KCl (50 mM, 120 mM and 5 mM, respectively, pH 7.4) prior to dilution to an appropriate protein concentration optimised for specific and non-specific binding. […] Membrane-bound activity was detected by filtration through a Packard Filtermate harvester onto GF/B Unifilterplates, washed with ice-cold Tris-HCl buffer, containing NaCl and KCl (50 mM, 120 mM and 4 mM; pH 7.4; 6×0.5 ml). Filters were allowed to dry for 24 h before adding scintillation fluid. Scintillation fluid was allowed to saturate filters for 24 h before counting in a Topcount scintillation counter. Percentage specific bound and competition binding curves were calculated using S-Plus software (Insightful).

[2] = biological target: T3, human cloned 5-HT2C receptor (Homo sapiens, UniProt P28335); assay: In vitro binding affinity for 5-HT2C receptor (radioligand binding); settings: read-out: h-5HT2C (converted)
T3 construct: expressed in transfected cells; host or cells: CHO cells
Experimental: (§1) The interaction of the compounds of Formula (I) with 5-HT2A and 5-HT2C receptors was assessed in in vitro radioligand binding experiments. […] During the incubation, the radioligands bind to the receptor. When equilibrium of binding is reached, the receptor bound radioactivity is separated from the non-bound radioactivity, and the receptor bound activity is counted. The interaction of the test compounds with the receptors is assessed in competition binding experiments. Various concentrations of the test compound are added to the incubation mixture containing the tissue preparation and the radioligand. Binding of the radioligand will be inhibited by the test compound in proportion to its binding affinity and its concentration.

[3] = biological target: T4, human cloned 5-HT2A receptor (Homo sapiens, UniProt P28223); assay: In vitro binding affinity for 5-HT2A receptor (radioligand binding); settings: read-out: h-5HT2A (converted)
T4 construct: expressed in transfected cells; host or cells: L929 cells
Experimental: as §1, with “concentration. The affinities of the compounds for the 5-HT2 receptors were measured by means of radioligand binding studies conducted with: (a) human cloned 5-HT2A receptor, expressed in L929 cells using [^125I]R91150 as radioligand and (b) human cloned 5-HT2C receptor, expressed in CHO cells using [^3H]mesulergine as radioligand.” for “concentration.”

| SMILES | IC50 [1] [nM] | IC50 (NET) [nM] | IC50 [2] [nM] | IC50 [3] [nM] |
| --- | --- | --- | --- | --- |
| CN(C)CC1CC2=C(O1)c1cc(F)ccc1Oc1ccccc12 (stereo not shown) [Compound 26] | 398 | 39.8 | – | – |
| CCCCc1ccc2c(c1)C1=C(CC(CNC)O1)c1ccccc1C2 (stereo not shown) [Compound 6] | – | 7940 | 7.94 | – |
| OC1CCN(CC2CC3=C(O2)c2cc(F)ccc2Sc2ccccc23)C1 (stereo not shown) [Compound 34] | – | 501 | 0.501 | – |
| CNCC1CC2=C(O1)c1cc(F)ccc1Sc1ccccc12 (single isomer, unassigned) [Compound 14] | 25.1 | 2.51 | – | 0.251 |
| NCC1CC2=C(O1)c1cc(F)ccc1Cc1ccccc12 (stereo not shown) [Compound 1] | 316 | 316 | – | – |
| OC1CCN(CC2CC3=C(O2)c2cc(F)ccc2Cc2ccccc23)CC1 (stereo not shown) [Compound 36] | 6.31 | 6310 | 0.631 | 0.631 |
| O=C(NC1CCCCC1)N1CCN(CC2CC3=C(O2)c2cc(F)ccc2Cc2ccccc23)CC1 (stereo not shown) [Compound 79] | – | 7940 | 79.4 | – |
| CN(C)CC1CC2=C(O1)c1cc(F)ccc1Sc1ccccc12 (stereo not shown) [Compound 28] | – | 5.01 | 0.501 | – |
| CC(=O)N1CCN(CC2CC3=C(O2)c2cc(F)ccc2Oc2ccccc23)CC1 (stereo not shown) [Compound 54] | 1580 | 1580 | – | – |
| CN(C)CC1CC2=C(O1)c1ccccc1Cc1ccccc12 (stereo not shown) [Compound 22] | 631 | 79.4 | – | – |
| CN(CCO)CC1CC2=C(O1)c1cc(F)ccc1Cc1ccccc12 (stereo not shown) [Compound 31] | 39.8 | 39.8 | – | – |
| CN(C[C@H]1CC2=C(O1)c1cc(F)ccc1Cc1ccccc12)C1CC(=O)NC1=O (mixture of isomers) [Compound 124] | – | 6310 | 63.1 | – |
| O=C(Nc1ccc(F)cc1)N1CCN(CC2CC3=C(O2)c2cc(F)ccc2Cc2ccccc23)CC1 (stereo not shown) [Compound 85] | – | 5010 | 5.01 | – |
| CCCCNC(=O)N1CCN(CC2CC3=C(O2)c2cc(F)ccc2Oc2ccccc23)CC1 (stereo not shown) [Compound 78] | 1260 | 1260 | – | – |
| CN(C)CC1CC2=C(O1)c1cc(Br)ccc1Oc1ccccc12 (stereo not shown) [Compound 27] | 50.1 | 501 | – | – |
| O=S(=O)(Cc1ccccc1)N1CCN(CC2CC3=C(O2)c2cc(F)ccc2Cc2ccccc23)CC1 (stereo not shown) [Compound 51] | – | > 10000 | – | – |
| CN(C)CC1CC2=C(O1)c1ccccc1Cc1ccccc12 (single isomer, unassigned) [Compound 23] | – | 631 | – | – |
| CNCC1CC2=C(O1)c1cc(F)ccc1C(C)c1ccccc12 (stereo not shown) [Compound 8] | – | 39.8 | – | – |
| CNC(=O)/C=C/CN(C)C[C@H]1CC2=C(O1)c1cc(F)ccc1Cc1ccccc12 [Compound 123] | – | 200 | – | – |
| COC(=O)CC(=O)N1CCN(CC2CC3=C(O2)c2cc(F)ccc2Cc2ccccc23)CC1 (stereo not shown) [Compound 59] | – | > 10000 | – | – |
| CN(C)C(=O)N1CCN(CC2CC3=C(O2)c2cc(F)ccc2Cc2ccccc23)CC1 (stereo not shown) [Compound 75] | – | > 10000 | – | – |
| CC(=O)N1CCN(CC2CC3=C(O2)c2cc(F)ccc2Cc2ccccc23)CC1 (stereo not shown) [Compound 53] | – | 2000 | – | – |
| CCCC(=O)N1CCN(CC2CC3=C(O2)c2cc(F)ccc2Cc2ccccc23)CC1 (stereo not shown) [Compound 55] | – | 2510 | – | – |
| CCCCNC(=O)N1CCN(CC2CC3=C(O2)c2cc(F)ccc2Cc2ccccc23)CC1 (stereo not shown) [Compound 77] | – | 7940 | 7.94 | – |
| CCOC(=O)N1CCN(CC2CC3=C(O2)c2cc(F)ccc2Oc2ccccc23)CC1 (stereo not shown) [Compound 62] | – | > 10000 | – | – |
| CN(C)CC1CC2=C(O1)c1ccccc1Oc1ccccc12 (stereo not shown) [Compound 25] | – | 251 | – | – |
| CN(C)CC1CC2=C(O1)c1ccccc1Cc1ccccc12 (single isomer, unassigned) [Compound 24] | – | 31.6 | – | – |

Reference: US8022102B2, “Unsaturated tetracyclic tetrahydrofuran derivatives” (Janssen Pharmaceutica, NV, priority 2004, dated 2011)
